Laboratory results from US11400136B2, “Methods and compositions for treating a microbial infection” (priority 2017, dated 2022).

Key:
S. pyogenes M1 [1] = type: cell-based, mouse; conditions: CGRP added, no neurons
lung cells = test: Cytokine production by whole lung cell cultures infected with S. aureus; type: cell-based, mouse; conditions: CGRP 100 nM; S. aureus MOI 2
S. pyogenes M1 [2] = test: Lancefield assay (human whole blood killing); type: cell-based; conditions: CGRP 10 or 100 nM; 3 h
myeloperoxidase (MPO) = test: Neutrophil myeloperoxidase activity (MPO) assay; type: cell-based, mouse; conditions: in presence of S. pyogenes; 30 min; dose-dependent
Experimental: Neutrophil myeloperoxidase activity (MPO) assay. Mouse neutrophils were isolated from mouse bone marrow using EasySep mouse neutrophil enrichment kit and EasySep Magnet according to manufacturer's instructions (StemCell). These neutrophils (5×10^5 cells per well) were then treated with CGRP (0.01-1 GenScript) or vehicle (PBS), immediately prior to mixture with S. pyogenes (5×10^3 cfu) M1 wt strain or vehicle (PBS) in 200 μL of neurobasal-A medium containing 10% of fresh mouse serum. Serum was obtained after coagulation of whole mouse blood. Plates were incubated for 30 min at 37° C. with gently shaking (150 rpm), and supernatant collected for MPO activity measurements. Supernatants (50 μL) were added to 200 μL, of 50 mM phosphate buffer solution (pH 6.0) containing 0.167 mg/mL of peroxidase substrate o-dianisidine dihydrochloride (Santa Cruz Biotech) and 0.05% hydrogen peroxide (Santa Cruz Biotech) and incubated for 30 min at room temperature. MPO activity was determined spectrophotometrically by measuring the increase in absorbance at 450 nm.

S. aureus = test: Neutrophil intracellular killing of S. aureus; type: cell-based, mouse; conditions: CGRP 0-1000 nM; 2 h

CGRP (ACDTATCVTHRLAGLLSRSGGVVKNNFVPTNVGSKAF; Calcitonin gene-related peptide 1; UniProt P06881 83-119, looked up)
mouse neutrophil killing of S. pyogenes (multiplication factor) (S. pyogenes M1 [1]): inhibits killing of bacteria; also recorded: significantly enhanced the growth of bacteria | CXCL1 production (lung cells): significantly reduces expression of both cytokines; also recorded: inhibited; also recorded: suppressed CXCL1 | IL-6 production (lung cells): but not IL-6 | TNF-α production (lung cells): significantly reduces expression of both cytokines; also recorded: inhibited | killing of S. pyogenes by human whole blood (multiplication factor) (S. pyogenes M1 [2]): inhibits killing of the bacteria; also recorded: significantly enhanced the growth of bacteria | MPO activity in neutrophil supernatants (myeloperoxidase (MPO)): decreased; also recorded: inhibited the activity of the bactericidal enzyme myeloperoxidase (MPO) | neutrophil killing of S. aureus (S. aureus): inhibition of killing; also recorded: decreases S. aureus clearance; also recorded: inhibited intracellular killing of S. aureus

human CGRP (ACDTATCVTHRLAGLLSRSGGVVKNNFVPTNVGSKAF; Calcitonin gene-related peptide 1; UniProt P06881 83-119, looked up)
killing of S. pyogenes by human whole blood (multiplication factor) (S. pyogenes M1 [2]): inhibited the killing of S. pyogenes by human whole blood

Entries after “also recorded” stand apart in the source; their conditions may differ.
